We go through three molecules from US6323240A, “4-phenyl-4-oxo-butanoic acid derivatives with kynurenine-3-hydroxylase inhibiting activity” (Pharmacia & Upjohn S.p.A., priority 1995, dated 2001).

The chains behind the UniProt entries cited, without tags or fusion partners. Where a name states a change or a piece, a line headed by the entry shows the natural chain unless it says otherwise.
UniProt O88867: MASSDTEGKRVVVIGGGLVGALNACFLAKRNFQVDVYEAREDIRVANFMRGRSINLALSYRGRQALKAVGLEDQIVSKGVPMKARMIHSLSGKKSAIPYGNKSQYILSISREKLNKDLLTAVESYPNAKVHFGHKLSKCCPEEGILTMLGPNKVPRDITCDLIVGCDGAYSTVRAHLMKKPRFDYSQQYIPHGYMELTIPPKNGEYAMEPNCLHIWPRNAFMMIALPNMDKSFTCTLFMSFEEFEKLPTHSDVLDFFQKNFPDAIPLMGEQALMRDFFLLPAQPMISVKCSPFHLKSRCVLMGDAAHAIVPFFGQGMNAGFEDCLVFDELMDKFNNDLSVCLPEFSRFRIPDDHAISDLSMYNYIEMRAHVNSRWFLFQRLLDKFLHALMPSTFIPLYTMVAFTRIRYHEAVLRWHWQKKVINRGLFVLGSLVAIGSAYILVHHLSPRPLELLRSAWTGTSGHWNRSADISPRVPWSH

pIC50: −log10 of the molar value.

The target of the assay is kynurenine-3-hydroxylase (Rattus norvegicus, UniProt O88867). Description: Kynurenine-3-hydroxylase assay in the rat liver (radiometric, tritiated water release, rat liver mitochondrial extract). The assay is classed as biochemical. On the set-up: Rat liver mitochondrial extract was used as enzymatic preparation for this assay; from tissue; host or cells: rat liver mitochondrial extract. The conditions noted are these: 0.025 mM L-kynurenine, pH 8.1, 37° C., 30 min. As for the experimental part: Kynurenine-3-hydroxylase Assay in the Rat Liver
The assay for kynurenine 3-hydroxylase was based on the enzymatic synthesis of tritiated water during the hydroxylation reaction. Radiolabeled water was quantified following selective adsorption of the isotopic substrate and its metabolite with activated charcoal.
Rat liver mitochondrial extract was used as enzymatic preparation for this assay.
The assay for kynurenine 3-hydroxylase activity was carried out at 37° C. for a time of 30 min. The reaction mixture of a total volume of […] was constituted of […] of suspended extract, 100 mM Tris/Cl^- buffer pH 8.1, 10 mM EDTA, 100 mM Kcl, 0.8 mM NADPH, 0.025 mM L-kynurenine, […] L-(3,5-^3 H)Kynurenine (10 Ci/mmol) and […] of different concentration of inhibitor solutions. After the incubation the reaction was terminated by the addition of 1 mL of 7.5% (w/v) activated charcoal, vortexed and centrifugated for 7 min.
A […] aliquot of supernatant was counted by scintillation spectroscopy in 5 ml of liquid scintillation.
As usually defined, the pIC50 is the IC50 on a negative log10 scale, so that one unit is a factor of ten. For the molecule `O=C(CC(O)C(=O)O)c1cccc([N+](=O)[O-])c1` (racemic) [PNU 158791, (R,S)-2-hydroxy-4-(3'-nitrophenyl)-4-oxo-butanoic acid], the pIC50 is 4.95.
The result for `O=C(CC(O)C(=O)O)c1cccc(F)c1` (racemic) [PNU 158790, (R,S)-2-hydroxy-4-(3'-fluorophenyl)-4-oxo-butanoic acid] reads 4.94.
To `O=C(CC(O)C(=O)O)c1ccc(F)c(F)c1` (racemic) [PNU 158783, (R,S)-2-hydroxy-4-(3',4'-difluorophenyl)-4-oxo-butanoic acid] belongs 5.55.
